How the values were obtained:
Format in all cases: cell-based
[1] = tested on: Syrian Hamster embryo (SHE) cell; experiment: Cellular malignancy transformation test, colony forming efficiency (CE); details: SHE cells, 5.0 mg/flask, 24 h exposure
S. Typhimurium TA97 = experiment: Ames test, TA97; details: TA 97; 10.0 μg/plate
S. Typhimurium TA98 = experiment: Ames test, TA98; details: TA 98; 10.0 μg/plate
S. Typhimurium TA100 = experiment: Ames test, TA100; details: TA 100; 10.0 μg/plate
S. Typhimurium TA102 = experiment: Ames test, TA102; details: TA 102; 10.0 μg/plate

| Substance | Malignant transformed cell colony (CE) [1] | Normal cell colony (CE) [1] | Back Mutation Colony (S. Typhimurium TA97) [colony/plate] | Back Mutation Colony (S. Typhimurium TA98) [colony/plate] | Back Mutation Colony (S. Typhimurium TA100) [colony/plate] | Back Mutation Colony (S. Typhimurium TA102) [colony/plate] |
| --- | --- | --- | --- | --- | --- | --- |
| MNNG | 4.4 ± 3.7 | 2.6 ± 4.5 | – | – | – | – |
| 2-amino fluorine | – | – | 1109.7 ± 58.8 | 1131.7 ± 233.32 | 1095.7 ± 118.2 | 1080.0 ± 89.4 |

Reference: patent publication US7691387B2, “Cinnamomi and poria composition, method to prepare same and uses thereof” (Jiangsu Kanion Pharmaceutical Co., Ltd, priority 2000, dated 2010)
